From patent US11970583B2, “Therapeutic dendrimer” (Starpharma Pty Ltd., priority 2018, dated 2024) come the findings set out here.

The nature of this data set: Cabazitaxel release from dendrimers in PBS at 37° C. and pH 7.4. It is filed as physicochemical. The settings on record: for % of Cabazitaxel Released: Exp #2, PBS 37° C. pH 7.4. From the text: The compounds tested were:

Consider “BHALys[Lys]32[α-DGA-Cabazitaxel]32†[ε-PEG˜1100]32‡ [SPL9049]”, for which, where the note is “PBS, 37° C., pH 7.4”, the “% API released at 24 hours (Exp #1)” value was 51.5%. Besides, the “% API released at 24 hours (Exp #2)” value (PBS, 37° C., pH 7.4) is recorded as 32%. For the setting “PBS, 37° C., pH 7.4”, the “Time to 50% release (mean) (Exp #2)” value worked out at 54 h. Further, where the note is “PBS, 37° C., pH 7.4”, the “release of Cabazitaxel over 24 hours” value lay in the range of 30 to 50%. Also, the “% of Cabazitaxel Released” value reads like this: (time 0 h) 0.97%; (time 24 h) 32.06%; (time 48 h) 45.156%; (time 67 h) 59.676%; (time 87 h) 67.86%.
